Values quoted from earlier work as cited in patent EP4650002A1 (Ludwig-Maximilians-Universität, priority 2024, dated 2025).

Sequences of proteins named here, by UniProt entry; tags and fusion partners are left off. Residues count along the entry.
UniProt Q9Y466, 155-383 limits assumed: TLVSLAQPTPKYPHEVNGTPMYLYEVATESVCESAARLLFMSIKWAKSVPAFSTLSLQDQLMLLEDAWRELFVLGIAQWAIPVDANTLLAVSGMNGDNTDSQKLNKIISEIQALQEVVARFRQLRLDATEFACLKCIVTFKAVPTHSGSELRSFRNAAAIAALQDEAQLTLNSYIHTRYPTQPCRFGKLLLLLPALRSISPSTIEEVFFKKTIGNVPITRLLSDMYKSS

Target: human TLX (Homo sapiens, UniProt Q9Y466)
Conditions: literature value (Lit. 16 / Lit. 19); in brackets below the EC50; cited from earlier work

**Q.** Which relative reporter activity does the source give for `CCCCOc1cc(C(=O)Nc2cc(-n3cnc(C)c3)cc(C(F)(F)F)c2)c2ccccc2n1` here?
**A.** 0.33±0.12
